Assay results as given in US4695576A, “L-N-n-propylpipecolic acid-2,6-xylidide” (priority 1985, dated 1987).

Legend:
[1] = Anesthetic activity/potency comparison; details: in vivo
[2] = Cardiotoxicity and general toxicity as stated in the text; details: in vivo
[3] = in vivo; details: mouse, iv

SMILES	activity relative to R-Bupivacaine [1]	toxicity relative to Bupivacaine [2]	LD50 [3] [mg/kg]
CCCN1CCCC[C@H]1C(=O)Nc1c(C)cccc1C [3 L, L-N-n-propylpipecolic acid-2,6-xylidide]	double the activity of R-Bupivacaine	much less toxic	
CCCN1CCCCC1C(=O)Nc1c(C)cccc1C (stereo not drawn) [3 R, N--n-propylpipecolic acid 2,6-xylidide]			13.6
